According to patent publication US8143424B2, “Thyroid like compounds” (Torrent Pharmaceuticals Ltd., priority 2007, dated 2012):

What was measured:
THR α1 = target: T1, THR α1 (Homo sapiens, UniProt P10827); assay: Thyroid α1 transactivation (TRE reporter, luciferase) in COS7 cells; type: cell-based; conditions: Conc. 20 uM, 24 hours, vs vehicle control
T1 construct: GAL4 (plasmid pGAL4); expressed in transfected cells; host or cells: COS7
T1 sequence (P10827 1-410 isoform P10827-2): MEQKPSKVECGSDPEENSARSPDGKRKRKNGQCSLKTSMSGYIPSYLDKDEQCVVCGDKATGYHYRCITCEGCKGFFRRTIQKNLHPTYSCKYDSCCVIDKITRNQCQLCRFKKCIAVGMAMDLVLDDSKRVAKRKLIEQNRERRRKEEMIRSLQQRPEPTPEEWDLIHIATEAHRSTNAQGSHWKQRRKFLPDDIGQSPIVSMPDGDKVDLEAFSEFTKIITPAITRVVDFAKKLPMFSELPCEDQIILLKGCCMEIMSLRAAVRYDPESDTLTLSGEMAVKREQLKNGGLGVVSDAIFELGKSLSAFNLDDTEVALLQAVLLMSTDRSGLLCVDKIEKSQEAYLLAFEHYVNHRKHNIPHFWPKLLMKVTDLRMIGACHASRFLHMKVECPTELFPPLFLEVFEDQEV
Description: (§1) Compounds of the present invention were tested for their effect on O2 consumption (metabolic effect), LDL cholesterol, glucose levels, insulin levels and food consumption (appetite stimulant) and also to assess transcriptional activity of thyroid hormone receptor by in vitro TRE (Thyroid receptor element) reporter assay for TRα1 and TRβ1.
(§2) COS7 cells were transiently transfected with pGAL4 […]/Thyroid α1 or pGAL4/Thyroid β1 and pLuc Pur. The cells were cotransfected with pLacZNorm for normalization of transfection efficiency. Transfected cells were then treated with different concentrations of compounds of present invention, vehicle for 24 hours.
(§3) Cells were the lysed and luciferase activity was monitored in all samples. Results were expressed as fold activation as compared to vehicle control.
(§4) Results: Thyroid(α1/β1) transactivation in COS7 cells.

THR β1 = target: T2, THR β1 (Homo sapiens, UniProt P10828); assay: Thyroid β1 transactivation (TRE reporter, luciferase) in COS7 cells; type: cell-based; conditions: Conc. 20 uM, 24 hours, vs vehicle control
T2 construct: GAL4 (plasmid pGAL4); expressed in transfected cells; host or cells: COS7
T2 sequence (P10828 1-461): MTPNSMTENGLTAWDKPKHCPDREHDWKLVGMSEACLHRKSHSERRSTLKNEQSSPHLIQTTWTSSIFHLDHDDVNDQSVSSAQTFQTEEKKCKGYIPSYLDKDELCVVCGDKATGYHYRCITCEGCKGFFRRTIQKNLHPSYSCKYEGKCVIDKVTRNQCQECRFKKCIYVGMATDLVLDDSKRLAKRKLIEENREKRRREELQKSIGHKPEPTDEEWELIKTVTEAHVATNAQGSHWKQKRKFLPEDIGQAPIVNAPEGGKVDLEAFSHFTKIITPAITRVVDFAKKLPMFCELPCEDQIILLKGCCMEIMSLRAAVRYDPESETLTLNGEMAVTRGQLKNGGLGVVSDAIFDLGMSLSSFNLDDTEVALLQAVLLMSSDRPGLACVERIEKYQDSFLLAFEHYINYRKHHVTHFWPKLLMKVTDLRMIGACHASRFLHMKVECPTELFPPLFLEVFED
Description: as §1, §2, §3, §4

α1 Fold Activation (THR α1): 3 Fold
β1 Fold Activation (THR β1): 1 Fold
Substance: 3-[4-(7-Hydroxy-indan-4-yloxy)-3-thiophen-2-yl-pyrazol-1-yl]-propionic acid And 3-[4-(7-Hydroxy-indan-4-yloxy)-5-thiophen-2-yl-pyrazol-1-yl]-propionic acid [Compound 7]
